PubChem BioAssay AID422 (Emory University Molecular Libraries Screening Center, 2006)
Several values for one entry are separate records, joined by “and”; a condition that tells them apart may be missing. Identical values can stand only once. The entries are a selection whose mix differs from that of the whole data set. Activity calls are given as the source filed them. No stated cut-off is given here; in the data, active means inhibition above about 30%; inactive means the rest.

Chains of the proteins cited; added tags and fusions are not shown. Lines headed by an entry give the natural chain unless they say otherwise; changes in a name come on top.
UniProt P61981: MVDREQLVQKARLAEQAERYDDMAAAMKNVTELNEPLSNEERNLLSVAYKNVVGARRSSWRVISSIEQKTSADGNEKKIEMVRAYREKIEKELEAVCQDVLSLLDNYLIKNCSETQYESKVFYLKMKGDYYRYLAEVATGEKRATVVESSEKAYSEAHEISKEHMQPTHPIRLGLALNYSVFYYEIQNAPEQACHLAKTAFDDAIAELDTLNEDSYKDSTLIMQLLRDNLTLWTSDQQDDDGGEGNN

Each molecule was assayed against 14-3-3 protein gamma (Homo sapiens) (UniProt P61981) (assay: modulators of 14-3-3 gamma protein binding, primary screen, biochemical, fluorescence polarization (AID 422;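 further: 0% = protein plus tracer without compound and 100% = blank with tracer alone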)). Conditions: FP, 14-3-3gamma / TMR-pS259-Raf peptide binding; at 40 µM; stronger effect = higher value.

Q: `Nc1cc(N)c2nonc2c1[N+](=O)[O-]` was tested. Which inhibition did it give?
A: inactive: -15.5%

Q: For `Cc1c2non([O-])c-2c(C)[n+](=O)[n+]1[O-]`, which inhibition is on record?
A: inactive: -8.77%

Q: For `O=C(CCc1ccccc1)OC1CN2CCC1CC2` (stereo not drawn), which inhibition is on record?
A: inactive: -0.98%

Q: For `CN(C(=O)Cc1ccc(Cl)c(Cl)c1)[C@H]1CCCC[C@@H]1N1CCCC1`, which inhibition is on record?
A: inactive: -3.29% and inactive: 0.72%

Q: Which inhibition does the source give for `COC(=O)C1=C(C(=O)OC)SC(Br)(C(=O)OC)C(Br)(C(=O)OC)S1` (stereo not drawn) here?
A: inactive: -2.04%

Q: With `CCc1nc2c(n1)c1c(non1O)c1c2no[n+]1[O-]` as the molecule, how does the inhibition read?
A: inactive: -4.71%

Q: With `BrCC1CN=C(N2CCOCC2)S1` (stereo not drawn) as the molecule, how does the inhibition read?
A: inactive: -10.1%

Q: With `O=P(Nc1nccs1)(c1ccccc1)c1ccccc1` as the molecule, how does the inhibition read?
A: inactive: -1.36%

Q: For `COc1ccccc1OP(=O)(Nc1ccccn1)Oc1ccccc1OC`, which inhibition is on record?
A: inactive: -2.74%

Q: `c1nnnn1CCn1cnnn1` was tested. Which inhibition did it give?
A: inactive: -4.18%

Q: Which inhibition does the source give for `O=C(OC1CN2CCC1CC2)c1cccc(Cl)c1` (stereo not drawn) here?
A: inactive: -5.37%

Q: For `CCN(C(=NP(=O)(N1CCOCC1)N1CCOCC1)N1CCOCC1)c1ccc(OC)cc1`, which inhibition is on record?
A: inactive: 6.48%

Q: With `CCOP(=S)(NCC(C)C)OCC` as the molecule, how does the inhibition read?
A: inactive: 1.09%

Q: Which inhibition does the source give for `CN(C(=O)Cc1ccc(Cl)c(Cl)c1)[C@@H]1CCCC[C@@H]1N1CCCC1` here?
A: inactive: -2.4%

Q: For `Cc1ccc([N+](=O)[O-])c2no[n+]([O-])c12`, which inhibition is on record?
A: inactive: -15%

Q: Which inhibition does the source give for `O=P1(Nc2nc3ccc(Cl)cc3s2)COc2ccccc2O1` (stereo not drawn) here?
A: inactive: -6.14%

Q: For `CN(C(=O)Cc1ccc(Cl)c(Cl)c1)[C@@H]1CC[C@]2(CCCO2)C[C@H]1N1CCCC1`, which inhibition is on record?
A: inactive: 4.9%

Q: How did the inhibition turn out when `Cc1cccc(OCC(=O)OC2CN3CCC2CC3)c1` (stereo not drawn) was run?
A: inactive: -1.78%

Q: With `CCOP1(=S)c2c(C)nn(CCC#N)c2N=C(c2ccc(F)cc2)N1C` (stereo not drawn) as the molecule, how does the inhibition read?
A: inactive: 2.03%

Q: `CN(C(=O)Cc1ccccc1)[C@@H]1CC[C@]2(CCCO2)C[C@H]1N1CCCC1` was tested. Which inhibition did it give?
A: inactive: 4.9%

Q: `Cc1ccc(S(=O)(=O)N2CC(=O)SC2C(Cl)(Cl)Cl)cc1` (stereo not drawn) was tested. Which inhibition did it give?
A: inactive: -12.3%

Q: `O=P(Nc1nccs1)(c1ccccc1)c1nc2ccccc2s1` (stereo not drawn) was tested. Which inhibition did it give?
A: inactive: 5.2%

Q: `CCOP1(=S)c2c(C)nn(CCC#N)c2N=C(c2ccccc2F)N1C` (stereo not drawn) was tested. Which inhibition did it give?
A: inactive: -2.2%

Q: `CN1CC(=O)N/C1=N/P(=O)(OCc1ccccc1)OCc1ccccc1` was tested. Which inhibition did it give?
A: inactive: 2.78%

Q: Which inhibition does the source give for `O=P1(Nc2ncccn2)COc2ccccc2OC1` here?
A: inactive: -9.93%

Q: `O=P1(Nc2ccc(Br)cn2)COc2ccccc2OC1` was tested. Which inhibition did it give?
A: inactive: 3.99%

Q: How did the inhibition turn out when `Cc1ccc(OCC(=O)OC2CN3CCC2CC3)cc1` (stereo not drawn) was run?
A: inactive: -4.83%

Q: With `Cc1nn(-c2ccccc2)c2c1P(=O)(N1CCOCC1)N(C)C(c1ccccc1)=N2` (stereo not drawn) as the molecule, how does the inhibition read?
A: inactive: -2.2%

Q: For `O=P(Oc1ccccc1)(Oc1ccccc1)n1c(-c2cccnc2)nc2ccccc21`, which inhibition is on record?
A: inactive: 8.2%

Q: How did the inhibition turn out when `CN(C(=O)Cc1ccc(Cl)c(Cl)c1)[C@@H]1CCCC[C@H]1N1CCCC1` was run?
A: inactive: 3.85%

Q: With `CN(CCCl)Cc1cc(Cl)c(NC2=NCCN2)c(Cl)c1` as the molecule, how does the inhibition read?
A: inactive: -1.42%

Q: How did the inhibition turn out when `COc1cccc(OP(=O)(Nc2ccccn2)Oc2cccc(OC)c2)c1` was run?
A: inactive: -3.42%

Q: Which inhibition does the source give for `O=P1(Nc2ccccn2)COc2ccccc2OC1` here?
A: inactive: -2.34%

Q: For `Clc1n[nH]nc1-c1nn[nH][15n]1`, which inhibition is on record?
A: inactive: -5.6%

Q: How did the inhibition turn out when `Clc1cccc(NC2=NCC(CBr)S2)c1` (stereo not drawn) was run?
A: inactive: 0.48%

Q: `COP1(=S)c2c(C)nn(CCC#N)c2N=C(c2ccc(F)cc2)N1C` (stereo not drawn) was tested. Which inhibition did it give?
A: inactive: 0.97%

Q: With `O=C(COc1ccccc1)OC1CN2CCC1CC2` (stereo not drawn) as the molecule, how does the inhibition read?
A: inactive: -2.55%

Q: For `CC(C)c1ccc(OP(=O)(Nc2ccccn2)Oc2ccccc2F)cc1` (stereo not drawn), which inhibition is on record?
A: inactive: -1.07%

Q: For `COC(=O)c1cc([N+](=O)[O-])[nH]n1`, which inhibition is on record?
A: inactive: 11.5%

Q: `O=C(OC1CN2CCC1CC2)C12CC3CC(CC(C3)C1)C2` (stereo not drawn) was tested. Which inhibition did it give?
A: inactive: -9.17% and inactive: 2.28%

Q: With `COP(=O)(OC)C(NC(=O)c1ccc(C)cc1)=C(Cl)Cl` as the molecule, how does the inhibition read?
A: inactive: -2.96%

Q: How did the inhibition turn out when `O=C(COc1ccc(F)cc1)OC1CN2CCC1CC2` (stereo not drawn) was run?
A: inactive: 6.86%

Q: `CN(C)P1(=O)Nc2ccccc2S1` (stereo not drawn) was tested. Which inhibition did it give?
A: inactive: -4.09%
